Data taken from ChEMBL document CHEMBL5154749 (Eur J Med Chem, 2022).

Organism: Homo sapiens
Test: Selectivity ratio of IC50 for human recombinant B-raf (416 to end residue) to IC50 for human recombinant full length ATR

Ratio IC50: 118
SMILES: C[C@@H]1COCCN1c1nc(-c2cccc3[nH]ccc23)nc2ccc(-c3ccnn3C)cc12
